The values below are quoted from earlier work in patent US20190241968A1, “BIOMARKER FOR PREDICTING RESPONSIVENESS TO ANTICANCER AGENT FOR GASTRIC CANCER AND USE THEREOF” (SAMSUNG LIFE PUBLIC WELFARE FOUNDATION, priority 2018, published 2019).

The data set deals with HER2-overexpressed cardiac muscle cells. To be noted: human, in vivo; cited from earlier work.

trastuzumab: anti-HER2 antibody: the major dose-limiting effect result is given as “cardiotoxicity”.
